The values below are quoted from earlier work in paper PMC5976250 (The Biochemical journal, 2017).

Amino acid sequences for entries named in this document (tags omitted). A change or cut given only in a name is not applied to a line headed by its entry.
UniProt P48165: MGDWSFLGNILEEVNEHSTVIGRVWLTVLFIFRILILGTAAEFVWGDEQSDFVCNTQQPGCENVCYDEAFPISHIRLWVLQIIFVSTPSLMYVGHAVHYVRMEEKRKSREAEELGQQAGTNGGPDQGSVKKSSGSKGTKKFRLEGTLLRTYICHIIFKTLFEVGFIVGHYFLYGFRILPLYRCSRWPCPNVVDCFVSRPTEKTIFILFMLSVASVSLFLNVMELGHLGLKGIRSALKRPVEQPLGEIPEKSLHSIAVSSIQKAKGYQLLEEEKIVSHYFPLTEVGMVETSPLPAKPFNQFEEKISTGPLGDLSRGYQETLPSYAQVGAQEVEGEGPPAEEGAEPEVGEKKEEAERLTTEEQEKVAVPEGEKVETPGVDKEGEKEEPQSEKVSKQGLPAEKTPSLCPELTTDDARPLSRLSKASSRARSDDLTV

The target of the series is CaM. Conditions: read-out: Kd for CaM, α-family connexin peptides; presence of Ca2+; ref [2]; cited from earlier work.

Regarding “Cx44p132–153: α-family connexin Cx44 peptide”, the Kd is 49 ± 3 nM.

Consider “Cx50p141–166: α-family connexin Cx50 peptide (FRLEGTLLRTYICHIIFKTLFEVGFI; UniProt P48165 141-166, looked up, fragment)”, for which the dissociation constant Kd is 4.9 ± 0.6 nM.
